# Reference: patent US12636373B2, “Prodrugs with a tridentate self-immolative linker” (The General Hospital Corporation, priority 2018, dated 2026)
# Tests used:
# [1] = In vitro NP prodrug release in PBS; type: physicochemical; conditions: 72 h at 37° C. in PBS
# Description: Transmission electron microscopy (TEM) was performed in the Microscopy Core of the Center for Systems Biology/Program in Membrane Biology (MGH). […] Excess solution was blotted, grids were stained with phosphotungstic acid, and then blotted, dried and imaged. In vitro NP prodrug release was performed by incubating in PBS at 37° C., separating NPs using a 30 kDa molecular weight cutoff filter (Millipore Amicon) after 72 h, and measuring flow-through for drug content by absorbance (Nanodrop). NP was dissolved in DMF and also measured for drug content by absorbance. Pd-NP, Alloc2R110 and its nanoformulation, and all Pd compounds were synthesized and characterized as previously described.^5
# [2] = test system: HT1080 fibrosarcoma cancer cells; experiment: Resazurin-based cytotoxicity assay, 72 h
smiles,measurement,setting,value
"C=CCOC(=O)Nc1ccc(C(OC(=O)N(C)[C@H](C(=O)NC(C(=O)N(C)[C@@H]([C@@H](C)CC)[C@@H](CC(=O)N2CCC[C@H]2[C@H](OC)[C@@H](C)C(=O)N[C@H](C)[C@@H](O)c2ccccc2)OC)C(C)C)C(C)C)C(=O)NCC)cc1 (stereo partly shown) [C16proMMAE, Alloc-SIL-C16-MMAE] (X1-[NMeV][ξV][Dil][Dolaproine]-X2)","kinetic release rate, fold slower than prodrug without C16 anchor",[1],20 fold
same,"turn-on capacity in cytotoxicity, fold greater than Alloc-DOX",[2],100 fold
same,fold change in cytotoxicity (IC50) upon Pd-NP activation,[2]; HT1080,> 10^4 fold
same,"in vitro potency, fold greater than Alloc-DOX",[2]; in the presence of Pd-NP,roughly 100 fold

# Where a SMILES comes first, the peptide text is derived from it. [ ]: non-standard residue; d: D form. The star is where a group is joined. ξ: configuration not given here. Dolaproine = CO[C@@H]([C@@H]1CCCN1)[C@@H](C)C(=O)O; X1 = C=CCOC(=O)Nc1ccc(C(OC(=O)*)C(=O)NCC)cc1; Dil = CC[C@H](C)[C@H](NC)[C@@H](CC(=O)O)OC; X2 = C[C@@H](N*)[C@@H](O)c1ccccc1; NMeV = CN[C@H](C(=O)O)C(C)C; ξV = CC(C)C(N)C(=O)O
